For this test, the target named is dipeptidyl peptidase IV (Homo sapiens, UniProt P27487). Conditions: read-out: IC50DPIV; values without "*" = IC-50.

Chains of the proteins cited; added tags and fusions are not shown.
UniProt P27487, whole entry, looked up: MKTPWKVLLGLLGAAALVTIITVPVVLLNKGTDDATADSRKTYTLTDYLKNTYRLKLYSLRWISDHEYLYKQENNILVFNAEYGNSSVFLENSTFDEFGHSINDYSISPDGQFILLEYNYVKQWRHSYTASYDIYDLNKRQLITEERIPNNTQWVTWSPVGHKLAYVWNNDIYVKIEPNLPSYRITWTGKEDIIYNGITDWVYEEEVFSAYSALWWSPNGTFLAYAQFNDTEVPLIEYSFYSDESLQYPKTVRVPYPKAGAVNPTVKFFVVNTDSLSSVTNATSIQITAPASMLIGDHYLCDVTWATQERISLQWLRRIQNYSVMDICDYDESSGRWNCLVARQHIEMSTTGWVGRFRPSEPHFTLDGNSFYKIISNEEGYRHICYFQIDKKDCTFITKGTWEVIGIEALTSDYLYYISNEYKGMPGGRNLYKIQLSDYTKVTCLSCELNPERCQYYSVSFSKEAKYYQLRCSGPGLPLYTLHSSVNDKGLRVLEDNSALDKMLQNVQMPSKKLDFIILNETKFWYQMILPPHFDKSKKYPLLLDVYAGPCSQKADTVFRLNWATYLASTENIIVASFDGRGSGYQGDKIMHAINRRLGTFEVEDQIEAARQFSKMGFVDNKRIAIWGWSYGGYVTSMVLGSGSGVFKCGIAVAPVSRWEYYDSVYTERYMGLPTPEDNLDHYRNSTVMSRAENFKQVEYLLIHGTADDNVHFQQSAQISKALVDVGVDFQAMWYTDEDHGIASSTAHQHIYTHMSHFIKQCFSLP

The structures appear in SMILES notation.

For the compound `O=C(COc1ccc([N+](=O)[O-])cc1Br)N/N=C/c1cc([N+](=O)[O-])cc([N+](=O)[O-])c1O`, the IC50 is 46.5 µM.
